Data on two substances can be found in US20100215747A1, “NANOPARTICLES COMPRISING IONIZABLE, POORLY WATER SOLUBLE CELLULOSIC POLYMERS” (priority 2007, published 2010).

How the values of this data set were obtained:
By “solids concentration” is meant the amount of solid polymer added to the PBS solution to measure the solubility of the polymer in the PBS solution. An appropriate PBS solution is an aqueous solution comprising 20 mM sodium phosphate (Na2HPO4), 47 mM potassium phosphate (KH2PO4), 87 mM NaCl, and 0.2 mM KCl, adjusted to pH 6.5 with NaOH. A test to determine whether the polymer is poorly water soluble may be performed as follows. The polymer is initially present in bulk form with average particle sizes of greater than 1 micron. The solid polymer alone is added to a PBS solution to achieve a solids concentration of 0.2 mg/mL polymer in the PBS solution. The PBS solution is stirred for approximately 1 hour at room temperature. Next, a nylon 0.45 μm filter is weighed, and the polymer solution is filtered. The filter is dried overnight at 40° C., and weighed the following morning. The amount of polymer dissolved is calculated from the amount of polymer added to the PBS solution minus the amount of polymer remaining on the filter (mg).
The degree of water solubility of Polymers 2, 3, and 5 were evaluated as follows. […] The amount of dissolved polymer was calculated from amount of polymer added to the PBS solution minus the amount of polymer remaining on the filter (mg). […]

In the case of “hydroxypropyl methylcellulose acetate succinate [CP1]”, the “Solubility (mg/mL) at pH 6.5” value worked out at 0.2 mg/mL. The result for “hydroxypropyl methylcellulose acetate succinate [CP2]” reads 0.2 mg/mL.
